From US9120756B2, “Substituted phenylureas and phenylamides as vanilloid receptor ligands” (Gruenenthal GmbH, priority 2009, dated 2015)

Amino acid sequences for entries named in this document (tags omitted).
UniProt O35433, whole entry: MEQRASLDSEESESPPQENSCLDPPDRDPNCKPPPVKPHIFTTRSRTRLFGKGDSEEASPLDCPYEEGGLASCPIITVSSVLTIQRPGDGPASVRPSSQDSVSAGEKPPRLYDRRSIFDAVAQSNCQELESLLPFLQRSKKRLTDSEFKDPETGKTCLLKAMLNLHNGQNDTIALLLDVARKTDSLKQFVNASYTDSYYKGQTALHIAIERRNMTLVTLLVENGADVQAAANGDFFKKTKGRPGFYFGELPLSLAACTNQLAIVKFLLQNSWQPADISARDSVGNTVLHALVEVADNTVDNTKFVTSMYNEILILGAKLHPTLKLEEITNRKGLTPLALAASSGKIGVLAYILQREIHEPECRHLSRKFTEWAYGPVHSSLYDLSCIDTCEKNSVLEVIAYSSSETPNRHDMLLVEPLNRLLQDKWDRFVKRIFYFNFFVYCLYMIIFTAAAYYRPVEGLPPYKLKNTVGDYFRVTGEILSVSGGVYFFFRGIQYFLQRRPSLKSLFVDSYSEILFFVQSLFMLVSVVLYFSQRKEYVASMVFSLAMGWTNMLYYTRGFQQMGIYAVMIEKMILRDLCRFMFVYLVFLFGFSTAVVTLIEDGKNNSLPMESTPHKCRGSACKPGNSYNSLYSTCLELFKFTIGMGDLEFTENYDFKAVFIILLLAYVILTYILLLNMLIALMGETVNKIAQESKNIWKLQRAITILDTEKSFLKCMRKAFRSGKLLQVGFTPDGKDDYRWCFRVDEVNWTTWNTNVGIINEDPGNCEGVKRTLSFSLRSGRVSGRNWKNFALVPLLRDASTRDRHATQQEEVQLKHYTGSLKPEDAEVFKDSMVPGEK

Target: rat-species vanilloid receptor 1 (VR1/TRPV1) (Rattus norvegicus (Rat), UniProt O35433)
Assay: FLIPR Ca2+ influx assay on rat dorsal root ganglia cells, capsaicin stimulus (method I)
Assay type: cell-based
Details: capsaicin (Cap)
Protocol: The agonistic or antagonistic effect of the substances to be tested on the rat-species vanilloid receptor 1 (VR1/TRPV1) can be determined using the following assay. In this assay, the influx of Ca^2+ through the receptor channel is quantified with the aid of a Ca^2+-sensitive dye (type Fluo-4, Molecular Probes Europe BV, Leiden, the Netherlands) in a fluorescent imaging plate reader (FLIPR, Molecular Devices, Sunnyvale, USA).
Complete medium: 50 ml HAMS F12 nutrient mixture (Gibco Invitrogen GmbH, Karlsruhe, Germany) with
10% by volume of FCS (foetal calf serum, Gibco Invitrogen GmbH, Karlsruhe, Germany, heat-inactivated);
2 mM L-glutamine (Sigma, Munich, Germany);
1% by weight of AA solution (antibiotic/antimyotic solution, PAA, Pasching, Austria) and 25 ng/ml NGF medium (2.5 S, Gibco Invitrogen GmbH, Karlsruhe, Germany) […]
The vertebral column is removed from decapitated rats and placed immediately into cold HBSS buffer (Hank's buffered saline solution, Gibco Invitrogen GmbH, Karlsruhe, Germany), i.e. buffer located in an ice bath, mixed with 1% by volume (percent by volume) of an AA solution (antibiotic/antimyotic solution, PAA, Pasching, Austria). […] The resulting pellet is respectively taken up in 250 μL of complete medium and the cell count is determined. […]

Ki	SMILES
0.2 nM	CC(C(=O)NCc1cc(C(C)(C)C)nn1-c1cccc(Cl)c1)c1ccc(NS(C)(=O)=O)c(F)c1 (centres unmarked) [Example 16, N-((3-tert-butyl-1-(3-chlorophenyl)-1H-pyrazol-5-yl)methyl)-2-(3-fluoro-4-(methylsulphonamido)phenyl)propanamide]
0.1 nM	C[C@H](C(=O)NCc1cc(C(C)(C)C)nn1-c1cccc(Cl)c1)c1ccc(NS(C)(=O)=O)c(F)c1 [Example 17, (S)-N-((3-tert-butyl-1-(3-chlorophenyl)-1H-pyrazol-5-yl)methyl)-2-(3-fluoro-4-(methylsulphonamido)phenyl)propanamide]
